In test [1] the target is Mu-type opioid receptor (Homo sapiens) (UniProt P35372). As to the kind of experiment: Agonist activity at MOR (unknown origin) expressed in HEK293T cells coexpressing Gi assessed as Gi-mediated inhibition of cAMP production incubated for 15 mins followed by Gs activator isoproterenol addition measured after 15 mins by luciferase reporter gene assay relative to DAMGO.
Test [2] deals with Delta-type opioid receptor (Homo sapiens) (UniProt P41143). In words: Agonist activity at DOR (unknown origin) expressed in HEK293T cells coexpressing Gi assessed as Gi-mediated inhibition of cAMP production incubated for 15 mins followed by Gs activator isoproterenol addition measured after 15 mins by luciferase reporter gene assay relative to DADLE. (Changes in cAMP serve as a functional read-out for many G protein-coupled receptors.)

Protein sequences, listed by entry. Tags and fused reporters are not part of them.
UniProt P35372, whole entry, looked up: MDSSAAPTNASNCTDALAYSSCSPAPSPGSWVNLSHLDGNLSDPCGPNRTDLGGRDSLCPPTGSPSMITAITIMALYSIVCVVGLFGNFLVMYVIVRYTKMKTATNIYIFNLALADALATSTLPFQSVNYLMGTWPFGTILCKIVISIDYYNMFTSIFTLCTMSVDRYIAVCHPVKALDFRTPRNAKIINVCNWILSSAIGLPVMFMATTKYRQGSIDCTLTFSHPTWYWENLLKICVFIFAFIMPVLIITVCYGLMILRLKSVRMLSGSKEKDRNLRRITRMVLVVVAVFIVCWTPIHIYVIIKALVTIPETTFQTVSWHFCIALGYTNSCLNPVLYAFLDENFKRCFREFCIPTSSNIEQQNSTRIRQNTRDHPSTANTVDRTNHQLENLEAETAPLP
UniProt P41143, whole entry, looked up: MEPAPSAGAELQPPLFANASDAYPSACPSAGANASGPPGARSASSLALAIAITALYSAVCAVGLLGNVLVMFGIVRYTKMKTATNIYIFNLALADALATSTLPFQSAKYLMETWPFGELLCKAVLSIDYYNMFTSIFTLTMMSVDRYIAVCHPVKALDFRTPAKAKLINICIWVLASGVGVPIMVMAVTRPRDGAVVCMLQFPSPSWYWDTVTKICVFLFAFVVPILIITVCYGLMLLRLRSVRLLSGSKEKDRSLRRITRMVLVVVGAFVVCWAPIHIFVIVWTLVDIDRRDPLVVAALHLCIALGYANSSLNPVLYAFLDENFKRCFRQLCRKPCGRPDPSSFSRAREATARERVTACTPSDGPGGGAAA

For `CC(NCc1nccn1C)c1cccc(O)c1` (centres undefined), the figures for the inhibition in test [1] and in test [2] were 70% and 50%, respectively.
On to `CC(c1cccc(O)c1)N(C)Cc1nccn1CC(F)(F)F` (centres undefined), for which the inhibition (as a rule, the share of the control response that was lost under treatment) in test [1] is 70%; in test [2] it was 50%.
